# Measured affinities in a library of Ab-91 heavy chain variants

From the AlphaSeq antibody data of Engelhart et al. 2022 (doi:10.1038/s41597-022-01779-4), copy in the FLAb collection.

Target peptide (SARS-CoV-2 spike, HR2 region): PDVDLGDISGINAS

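The parent was found by panning a naive human phage display library on the peptide. AAYL51 was designed without a model: most single CDR substitutions and a random sample of double and triple ones. The assay is AlphaSeq: two haploid yeast populations carry antibody and antigen on their surface. After mating in shaken culture at 30 °C for 16 h, diploids were selected and their barcode pairs sequenced. Scores were corrected for input abundance and mapped to Kd with protein pairs of known affinity run in the same pool. The assay was run in three technical replicates.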

Ab-91 is the parent antibody, in scFv form: VL, then three GGGGS repeats, then VH. The light chain is unchanged in all variants.
VL: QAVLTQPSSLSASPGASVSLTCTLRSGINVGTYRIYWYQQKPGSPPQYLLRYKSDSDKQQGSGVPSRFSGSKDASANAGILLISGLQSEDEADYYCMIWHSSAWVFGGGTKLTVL
VH: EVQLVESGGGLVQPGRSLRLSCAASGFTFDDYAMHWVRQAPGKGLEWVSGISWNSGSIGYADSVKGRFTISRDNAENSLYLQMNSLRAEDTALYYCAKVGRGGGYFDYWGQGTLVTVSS

The parent's heavy chain CDRs are GFTFDDYAMH, GISWNSGSIGYADSVK, VGRGGGYFDY; each variant's own CDRs replace them letter for letter. The read-out is the apparent dissociation constant on a log10 scale (nM): the lower, the stronger. The mean shown is taken over the replicates in which the pair was detected. "nd" means that the variant was in the library but no mating with the target was seen in any replicate; the authors take this as a sign of poor binding, and no number exists. Empty control strains, which show no peptide, gave a signal in 21% of pairings with library AAYL51; the median was 4.54 and 95% of these signals were weaker than 3.26. No background was subtracted. Parent in this assay: reference entry 1.86, copy in this library 0.88.

Result nd (0 of 3 replicates), variant GFTYDDYAMH, GWSWNSGSIGYADSVK, VGRGGGYFDY.
Result 4.83 (1 of 3 replicates), variant MFTFDDYAMH, GISWVPGSIGYADSVK, VGRGGGYFDY.
Result nd (0 of 3 replicates), variant GFSFDDYAMH, GITWNSGSIGYADSVK, VGRGGGYFDY.
Result nd (0 of 3 replicates), variant GSTFDDYAMH, GISWNSGSIGYADSQK, VGRGGGYLDY.
Result nd (0 of 3 replicates), variant HFTFDDYTMH, GISWNSGSIGYADSVK, VSRGGGYFDY.
Result nd (0 of 3 replicates), variant GFTFDDAAMH, GISWNSGCIGYADSVK, WGRGGGYFDY.
Result nd (0 of 3 replicates), variant GFTFDDYAMH, IIGWNSGSIGYADSVK, VGREGGYFDY.
Result 4.72 (1 of 3 replicates), variant GFTFDDYAMH, GISWMSGSIGYADSVS, VGRGGEYFDY.
Result nd (0 of 3 replicates), variant GFTFDDGAMH, GISWNSGSIWYADSVN, VGRGGGYFDY.
Result 1.65 (3 of 3 replicates), variant GFTFDDYAMH, GISWNSGSIGYADSVK, VGRAGGYFDL.
Result nd (0 of 3 replicates), variant GFTFDDYAMH, GQRWNSGSIGYADSVK, VGRGGGYFDY.
Result 4.07 (1 of 3 replicates), variant GFDTDDYAMH, GISWNSGSIGYADSVK, VGRGGGFFDY.
Result 3.19 (1 of 3 replicates), variant VFTFDDYAMH, GISMNSGSIGYANSVK, VGRGGGYFDY.
Result nd (0 of 3 replicates), variant GFTKDDYAMH, GISWRSGSIGYADSVK, VGRGGGYKDY.
Result 0.98 (3 of 3 replicates), variant GFTFDDYAMH, GISMNSGSIGYADFVK, VGRGGGYFDH.
Result 5.09 (1 of 3 replicates), variant GFTFDDYAMH, GISWNNGSIGYADSVK, NGRNGGYFDY.
Result 2.42 (3 of 3 replicates), variant GFTFDDYAMH, GISWNSGSIGYADSVI, HGRGGGYFDN.
Result 3.97 (2 of 3 replicates), variant GFTFDDYAME, GISWNMGSIGNADSVK, VGRGGGYFDY.
Result 6.17 (1 of 3 replicates), variant GFTFDDYRMH, GISWNSRSIGYAHSVK, VGRGGGYFDY.
Result 4.02 (2 of 3 replicates), variant GFTFDDYAMH, GISWNSGSIGYADSVK, VCRGGPGFDY.
Result 4.43 (3 of 3 replicates), variant GTTFDDYAMH, GISWNSGGIGYADSVK, VGRGGGYFDW.
Result 3.20 (3 of 3 replicates), variant GFTFDDYAMH, GISWNSGVIGYAASVK, VGRGGGYFSY.
Result nd (0 of 3 replicates), variant GFTFDDYAMD, GISWNAGSIGYHDSVK, VGRGGGYFDY.
Result 3.78 (1 of 3 replicates), variant GFTFDDYLMH, GISWNSGSVGYADLVK, VGRGGGYFDY.
Result 3.58 (1 of 3 replicates), variant GFTFDGYAMH, GISWNSGSIGKADSVK, HGRGGGYFDY.
Result 4.45 (2 of 3 replicates), variant GFTFDDYAMH, GPKWNSGSIGDADSVK, VGRGGGYFDY.
Result nd (0 of 3 replicates), variant GFTFDDYAWH, GISWNSGSIGYDDSVK, DGRGGGYFDY.
Result nd (0 of 3 replicates), variant GFTFDDYAMH, GISQNSGSIGYADRVK, VGRGGGYFDY.
Result 5.07 (1 of 3 replicates), variant GFTFDDFAMH, GISWNSGSIGYADSKK, VGRGGGYNDY.
Result 5.34 (2 of 3 replicates), variant GFTFDDYAMH, GISWNSGSIGYADSVK, GARGGGLFDY.
Result 5.40 (2 of 3 replicates), variant GFTFDDHAMH, GISWNSESIGYADSVD, VGRGGGYFDY.
Result 0.73 (3 of 3 replicates), variant GFTFADYAMH, GISWNSGSIGYADSVK, YGRGGPYFDY.
Result nd (0 of 3 replicates), variant GFTFDNYYMI, GISWNSGSIGYADSVK, VGRGGGYFDY.
Result 3.63 (2 of 3 replicates), variant GFTFDDYAMH, GISHNSGSFGYADSVK, VGRYGGYFDY.
Result nd (0 of 3 replicates), variant GFTFDDYAMH, GIYWNSGSIGYADSVK, VGRGGGPMDY.
Result 5.59 (3 of 3 replicates), variant GFTPDDYAYH, GISWNSGSIGYADSVP, VGRGGGYFDY.
Result 4.16 (2 of 3 replicates), variant GFTFDDYAMN, WISWNKGSIGYADSVK, VGRGGGYFDY.
Result 5.54 (1 of 3 replicates), variant GFTFDDYAQA, GISWNSGSIGYADSVK, VGRTGGYFDY.
Result 2.91 (3 of 3 replicates), variant HFTFDDYAMH, GISWNSGSIGYADSVR, VGRGGGYFDY.
Result 5.09 (3 of 3 replicates), variant MFTFDDYAMH, GISWNSGSIGYIDSVK, VRRGGGYFDY.
Result 5.39 (3 of 3 replicates), variant GFTFDDYRMH, GISWNSGSIGYACSVK, VGRGGGYVDY.
Result 2.07 (3 of 3 replicates), variant GFAFDDYAMH, GISWNSGSIGYADSVK, VGPGGGYFDG.
Result nd (0 of 3 replicates), variant GFTFDDYAMD, GISINSGSIGYADSVK, VGRGGGYFDT.
Result 4.37 (1 of 3 replicates), variant GFTFDDYAMH, GISWNSGSIGYADSDK, VQRSGGYFDY.
Result nd (0 of 3 replicates), variant GFTFDDYAMH, GISVNSGSIGYADSLK, VGRGGNYFDY.
Result 4.59 (3 of 3 replicates), variant GFTFDDYAMH, GISWNSGSIGNADSVK, VGRGGGYFDN.
Result nd (0 of 3 replicates), variant GFTFDDYAMH, GISWNSGSIGYACSVK, VGRAGGYFDY.
Result 4.06 (1 of 3 replicates), variant GFTQDDYAQH, GIQWNSGSIGYADSVK, VGRGGGYFDY.
Result nd (0 of 3 replicates), variant GFTFDDYAMH, GISWNSGSDGYADSVK, VGRECGYFDY.
Result 5.89 (1 of 3 replicates), variant GFTFDDYAMH, GISWNSGSIGYADSVK, VGRGGKLFDY.
Result 1.77 (3 of 3 replicates), variant GFQFDDYAMH, GISWNSGSIGYADSVK, VGRGRGSFDY.

Again, the first 3 entries without any signal:

GFTYDDYAMH, GWSWNSGSIGYADSVK, VGRGGGYFDY: nd (0 of 3 replicates).
GFSFDDYAMH, GITWNSGSIGYADSVK, VGRGGGYFDY: nd (0 of 3 replicates).
GSTFDDYAMH, GISWNSGSIGYADSQK, VGRGGGYLDY: nd (0 of 3 replicates).